Assay results taken from paper PMC6130710 (Pharmaceutical Biology, 2017).

The chains behind the UniProt entries cited, without tags or fusion partners. Residues count along the entry.
UniProt P23739, 1014-1841 limits assumed: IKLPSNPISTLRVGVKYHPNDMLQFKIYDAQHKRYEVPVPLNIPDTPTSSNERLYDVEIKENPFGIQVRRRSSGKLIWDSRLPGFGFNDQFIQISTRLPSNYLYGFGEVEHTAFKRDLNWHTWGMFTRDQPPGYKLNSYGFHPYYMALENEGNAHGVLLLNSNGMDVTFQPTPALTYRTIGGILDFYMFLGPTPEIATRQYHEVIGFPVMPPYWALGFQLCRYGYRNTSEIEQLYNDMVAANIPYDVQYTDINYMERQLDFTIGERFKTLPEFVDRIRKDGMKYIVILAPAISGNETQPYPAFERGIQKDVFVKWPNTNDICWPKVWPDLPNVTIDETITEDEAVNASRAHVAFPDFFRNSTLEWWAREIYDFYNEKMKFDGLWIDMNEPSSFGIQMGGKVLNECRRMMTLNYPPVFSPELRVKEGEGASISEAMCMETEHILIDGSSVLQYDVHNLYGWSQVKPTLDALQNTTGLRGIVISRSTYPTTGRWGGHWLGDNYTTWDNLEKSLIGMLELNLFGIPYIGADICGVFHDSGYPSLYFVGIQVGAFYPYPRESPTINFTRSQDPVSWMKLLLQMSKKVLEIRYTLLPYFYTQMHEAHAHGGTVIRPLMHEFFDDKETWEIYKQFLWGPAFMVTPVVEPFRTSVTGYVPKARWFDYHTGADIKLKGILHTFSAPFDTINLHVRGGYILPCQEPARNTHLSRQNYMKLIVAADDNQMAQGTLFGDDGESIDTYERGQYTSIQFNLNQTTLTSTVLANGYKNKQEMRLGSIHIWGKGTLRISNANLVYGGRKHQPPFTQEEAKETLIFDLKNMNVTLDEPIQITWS
UniProt P23739, 1-1013 partner limits assumed: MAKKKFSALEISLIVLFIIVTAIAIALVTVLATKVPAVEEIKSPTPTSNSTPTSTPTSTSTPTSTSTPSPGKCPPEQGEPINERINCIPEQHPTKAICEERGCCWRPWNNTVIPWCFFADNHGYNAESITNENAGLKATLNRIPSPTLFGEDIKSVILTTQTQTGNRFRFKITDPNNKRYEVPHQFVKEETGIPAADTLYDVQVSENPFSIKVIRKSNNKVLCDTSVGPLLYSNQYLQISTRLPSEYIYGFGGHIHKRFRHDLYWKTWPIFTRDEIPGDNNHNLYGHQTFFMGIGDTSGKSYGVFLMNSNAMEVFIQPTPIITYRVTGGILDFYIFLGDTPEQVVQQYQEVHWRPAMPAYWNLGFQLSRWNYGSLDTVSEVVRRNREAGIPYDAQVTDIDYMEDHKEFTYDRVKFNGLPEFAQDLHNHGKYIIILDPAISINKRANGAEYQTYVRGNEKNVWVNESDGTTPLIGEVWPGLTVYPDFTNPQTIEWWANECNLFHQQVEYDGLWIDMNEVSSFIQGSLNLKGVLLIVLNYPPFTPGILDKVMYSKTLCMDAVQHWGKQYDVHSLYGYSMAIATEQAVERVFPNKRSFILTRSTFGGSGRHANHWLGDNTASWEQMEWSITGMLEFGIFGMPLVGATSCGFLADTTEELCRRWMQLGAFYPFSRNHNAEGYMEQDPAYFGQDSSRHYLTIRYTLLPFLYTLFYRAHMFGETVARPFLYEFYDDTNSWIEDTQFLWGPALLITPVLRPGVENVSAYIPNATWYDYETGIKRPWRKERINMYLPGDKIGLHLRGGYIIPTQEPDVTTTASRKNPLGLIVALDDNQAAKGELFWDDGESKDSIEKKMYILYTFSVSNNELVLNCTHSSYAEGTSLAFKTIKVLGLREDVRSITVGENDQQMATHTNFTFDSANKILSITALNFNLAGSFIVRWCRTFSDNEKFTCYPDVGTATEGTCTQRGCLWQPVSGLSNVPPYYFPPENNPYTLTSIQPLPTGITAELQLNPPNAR

Target: T1, rat intestinal α-glucosidase (sucrase) (Rattus norvegicus, UniProt P23739)
T1 construct: tissue Sigma Aldrich; host or cells: rat intestinal acetone powder
Assay: rat intestinal α-glucosidase (sucrase) inhibition assay
Format: biochemical
Conditions: rat intestine
Experimental: 1 D and 2 D NMR spectra were recorded on a Bruker 400 AVANCE spectrometer, and the chemical shifts were reported in parts per million (ppm) using tetramethylsilane (TMS) as the internal standard. Melting points were determined on a Fisher-Johns Melting Point apparatus. Adsorbents such as silica gel 60 (Merck) were used for column and radial (chromatotron model 7924 T, Harrison Research) chromatographies. Merck silica gel 60F254 plates were used for TLC. HRESIMS spectra were obtained using a Bruker MICROTOF model mass spectrometer. UV-visible absorption spectra were recorded using a UV-2550 (SHIMADZU) UV-Vis spectrometer (Shimadzu, Kyoto, Japan). α-Glucosidase (EC 3.2.1.20) from Saccharomyces cerevisiae and 4-nitrophenyl-α-D-glucopyranoside (p-NPG) were obtained from Sigma-Aldrich (St. Louis, MO). Acarbose was obtained from Bayer Vitol Leverkusen, Germany. Rat intestinal acetone powder was supplied by Sigma Aldrich.
Moreover, previous procedure (Damsud et al. [2013]) was also applied to determine inhibitory activity of isolated compounds against intestinal α-glucosidases (maltase and sucrase). […] The absorbance of final product was determined at 503 nm, and percent inhibition was calculated using the aforementioned equation.

IC50 (compounds, Table 2): 10.9 ± 2.36 µM | IC50 (fractions A-G, Table 1): 11 µM
SMILES: C[C@H]1O[C@H](O[C@H]2[C@H](O)[C@@H](O)[C@@H](O[C@H]3[C@H](O)[C@@H](O)C(O)O[C@@H]3CO)O[C@@H]2CO)[C@H](O)[C@@H](O)[C@@H]1N[C@H]1C=C(CO)[C@@H](O)[C@H](O)[C@H]1O (some centres unmarked) [Acarbose, reference compound]
